Chains of the proteins cited; added tags and fusions are not shown. Residues count along the entry.
UniProt Q9NRI5, 598-854 W602F/W752F limits assumed: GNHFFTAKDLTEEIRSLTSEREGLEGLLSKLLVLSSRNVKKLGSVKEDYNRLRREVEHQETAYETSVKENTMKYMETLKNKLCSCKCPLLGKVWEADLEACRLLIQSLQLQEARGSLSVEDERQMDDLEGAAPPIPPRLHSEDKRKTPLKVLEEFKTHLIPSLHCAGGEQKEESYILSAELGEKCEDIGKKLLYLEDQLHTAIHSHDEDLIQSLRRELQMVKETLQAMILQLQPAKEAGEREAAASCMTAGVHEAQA

According to publication PMC10773898, “Evidence of DISC1 as an arsenic binding protein and implications regarding its role as a translational activator” (Frontiers in Molecular Biosciences, 2023):

Biological target: DISC1 C-terminal construct (598-854), "WT" (Homo sapiens, UniProt Q9NRI5, W602F/W752F)
Assay: tryptophan fluorescence quenching titration
Settings: read-out: Kd (high); 50 mM Tris-HCl, 10 mM NaCl, pH 8.0, 2 μM protein; two-site model, specific (stronger) site, Cys motif C680/C682/C684; one Kd from collective fit of WT and all variants

With `O[As](O)O` as the compound, how does the Kd read?
The Kd was 0.88 µM.
